# Binding of CDR-mutated scFvs to a peptide of the spike HR2 region

Source: Engelhart et al. 2022 (doi:10.1038/s41597-022-01779-4), MIT Lincoln Laboratory and A-Alpha Bio; data file from the FLAb repository.

All variants were tested on one target, the spike HR2 peptide PDVDLGDISGINAS (SARS-CoV-2).

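Phage display of a naive human antibody library on the peptide gave the parent. In library AAYL52, one, two or three CDR residues were substituted; doubles and triples were drawn at random. The scFvs were displayed on barcoded MATa yeast, the peptide on MATalpha yeast. Mating (16 h, 30 °C) was followed by selection of diploids and sequencing of their barcodes. The ratio of observed to expected reads was calibrated, replicate by replicate, on BCL2-family standards whose Kd was known from biolayer interferometry. Each pool was mated in three replicate cultures.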

Ab-95 is the parent antibody, in scFv form: VH, then the linker GGGGSGGGGSGGGGS, then VL. The heavy chain is unchanged in all variants.
VH: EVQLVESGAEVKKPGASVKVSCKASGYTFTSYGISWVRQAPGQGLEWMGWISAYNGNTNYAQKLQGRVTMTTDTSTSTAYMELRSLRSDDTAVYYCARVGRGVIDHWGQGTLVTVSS
VL: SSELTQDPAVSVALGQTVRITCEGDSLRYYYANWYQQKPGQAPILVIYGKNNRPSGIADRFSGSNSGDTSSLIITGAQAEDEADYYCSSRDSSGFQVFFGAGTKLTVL

Variants are written as CDR1, CDR2 and CDR3 of the light chain (limits as in the source). Parent: EGDSLRYYYAN, GKNNRPS, SSRDSSGFQVF. Affinities are written as log10 Kd with Kd in nM; a lower number is a better binder. "ND" means that the variant was in the library but no mating with the target was seen in that replicate; the authors take this as a sign of poor binding, and no number exists. Background: pairings of library AAYL52 with three empty control strains gave a value in 28% of cases (median 3.91, 5th percentile 2.90). Values in that range, when seen in few replicates, are hard to tell from nonspecific mating. For each scFv, signals with the empty controls are counted beside the result, with their mean in brackets. For reference, the parent read 2.31 as the reference entry and 2.25 as a member of this library.

CDR-L1	CDR-L2	CDR-L3	log10 Kd (nM) by replicate	control signals
EGDSLRYYYAN	GKNTRPS	ESRDSSGFQVF	2.14 2.19 1.76	6 of 9 (3.88)
EGDSLRYYWAN	GKNNRWS	SSRDSSGEQVF	3.73 3.98 4.01	3 of 9 (4.31)
NGDSLRYYYAN	GKHNRPS	SSRDSSPFQVF	4.22 3.46 4.61	5 of 9 (3.92)
DGDSLRYYYAN	GKNNRPS	SSRDSSMFQLF	2.96 ND ND	1 of 9 (3.31)
EGDSLRYYYAN	GPNNRPS	SSRDESGFVVF	2.50 2.28 2.08	2 of 9 (4.06)
EGDSLRYYYAY	GKNNRHS	SSRDSSHFQVF	ND ND ND	1 of 9 (3.42)
EGDSLRYYYAN	GKNNRPS	SDRDSSSFQVF	2.97 2.41 2.96	7 of 9 (4.01)
EGDSLRYEYAN	GKSNRPS	SSRDSSGFQVF	1.86 1.64 1.15	2 of 9 (4.57)
EGDSDRYYYAN	GENCRPS	SSRDSSGFQVF	4.48 4.94 ND	4 of 9 (4.33)
EGDSLRYYYAN	GKNNRNS	SSEMSSGFQVF	ND ND ND	0 of 9
EGDMLRYYYAN	GKNNRPS	SSPDSSGFQFF	ND ND ND	0 of 9
EGDSLRYMYAN	GKNNRPS	SSPDSSGFQVF	2.54 2.10 2.53	2 of 9 (3.41)
EGDSLRYYYAN	GKNERPS	LSRDSSGFQGF	3.98 2.23 2.49	2 of 9 (3.55)
EGDSLRWYYAN	GKNNRPS	HHRDSSGFQVF	2.23 2.38 ND	2 of 9 (3.82)
EGDSLRYYYAN	GSNGRPS	SSRDSSGEQVF	2.56 2.61 2.93	3 of 9 (3.80)
EGDSLRYYYAN	GKNNRWS	SSRDSDGRQVF	2.91 2.71 3.09	3 of 9 (3.88)
EGISLRYYYAN	GKNNRGS	SSRDYSGFQVF	2.78 2.94 3.81	1 of 9 (5.24)
EGDSLRYYIAN	DKNNRPS	SSKDSSGFQVF	ND ND ND	0 of 9
MGDSLRYYYAN	GKNNRPS	SSRDSSGFQVF	2.36 2.21 1.97	3 of 9 (4.14)
EGDVLRYYNAN	GKNNRPS	SSRDSSGFWVF	3.05 2.90 2.26	2 of 9 (4.13)
EGDSLRYDYWN	GKNNRPS	SSRDSSQFQVF	ND 2.99 ND	4 of 9 (4.52)
EGRSIRYYYAN	GKNNRPS	SSRDSSGFQVF	3.24 2.74 2.39	2 of 9 (4.14)
EGMSLRYYYAN	EKNNRPS	SSRDSSGGQVF	3.09 4.37 3.91	4 of 9 (4.44)
TGDSLRYYYAN	GKYNRHS	SSRDSSGFQVF	3.17 3.92 ND	4 of 9 (4.02)
EGASLRYYYAN	GKNPRPS	SSRDSSGEQVF	3.49 3.79 2.71	2 of 9 (2.98)
EGDSLRYYYAN	CKNNMSS	SSRDSSGFQVF	ND 3.74 4.19	2 of 9 (4.03)
MGDQLRYYYAN	GKNNRPS	PSRDSSGFQVF	3.21 3.86 ND	6 of 9 (3.97)
VGDSLRYYIAN	GKNLRPS	SSRDSSGFQVF	2.66 2.49 2.07	0 of 9
EGDSGRDYYKN	GKNNRPS	SSRDSSGFQVF	1.30 1.33 0.93	1 of 9 (4.29)
EGDSTGYYYAN	GKNNRPS	SSRDSSGFQVF	1.96 1.86 1.57	3 of 9 (4.59)
EGDSLRYYYAN	GKVNRPS	SSRDKSGFQIF	3.33 4.27 3.19	3 of 9 (4.22)
EYHSLRYYYAN	GKNIRPS	SSRDSSGFQVF	4.16 3.50 4.73	2 of 9 (4.24)
EGDSLRYYYWN	GKNNRPS	KSRDSSGFQVA	ND ND 4.25	4 of 9 (3.32)
EGWSLRYYYHN	RKNNRPS	SSRDSSGFQVF	5.14 3.88 ND	1 of 9 (3.97)
EGRSLRYYYAH	GKNNRPS	SSRDSSGPQVF	4.10 4.38 ND	2 of 9 (3.57)
EGDSLRYYYAG	GKNNRPS	SSRDWSGPQVF	ND 4.31 ND	2 of 9 (3.85)
EGDSLRYEYAN	GKNNRPS	SSRHSSGFQVF	2.00 1.92 1.34	2 of 9 (2.80)
EGDSLRNYYAN	GKNNRPS	SSVDSSGFQVF	1.46 1.33 1.54	4 of 9 (3.40)
EGDSLRYYYAN	TKNNRPS	SSRDSTLFQVF	3.88 ND ND	1 of 9 (3.16)
EGDSTRYYYAN	GKNNRPS	SSRDSSGFQID	5.59 5.72 ND	0 of 9
EGISLRYYYAN	GKNNRPS	SSNDPSGFQVF	3.18 ND ND	4 of 9 (3.82)
EGDSLRSYYAN	GPNNRPS	SSRDSSGFRVF	2.18 2.15 1.89	3 of 9 (5.04)
EGDSLRYYYAN	IKNNRPS	SSRTSSGFQEF	ND ND ND	2 of 9 (3.86)
EPDSLSYYYAN	GKNNRPS	SSRDSSGFWVF	ND 3.83 4.44	2 of 9 (4.30)
HGDSLEYYYAN	GKNNRPS	SSRDMSGFQVF	2.56 2.33 2.12	2 of 9 (4.17)
EGDSLRYYYAN	GKNNFPS	ESRDSSGFQNF	ND ND 3.02	2 of 9 (3.61)
EGDSLRYYYAW	GKNNRPM	SSRDSWGFQVF	4.33 5.31 ND	5 of 9 (4.21)

Excerpt, the final 3 entries:

CDR-L1	CDR-L2	CDR-L3	log10 Kd (nM) by replicate	control signals
HGDSLEYYYAN	GKNNRPS	SSRDMSGFQVF	2.56 2.33 2.12	2 of 9 (4.17)
EGDSLRYYYAN	GKNNFPS	ESRDSSGFQNF	ND ND 3.02	2 of 9 (3.61)
EGDSLRYYYAW	GKNNRPM	SSRDSWGFQVF	4.33 5.31 ND	5 of 9 (4.21)